Test results: PubChem BioAssay (Tox21)
Several values for one entry are separate records, joined by “and”; a condition that tells them apart may be missing. Equal values may be shown once. The list shows a part of the results, in another mix than the full data. Activity calls are given as the source filed them. Calls come from the whole dose curve.

Amino acid sequences for entries named in this document (tags omitted).
UniProt P22303, whole entry: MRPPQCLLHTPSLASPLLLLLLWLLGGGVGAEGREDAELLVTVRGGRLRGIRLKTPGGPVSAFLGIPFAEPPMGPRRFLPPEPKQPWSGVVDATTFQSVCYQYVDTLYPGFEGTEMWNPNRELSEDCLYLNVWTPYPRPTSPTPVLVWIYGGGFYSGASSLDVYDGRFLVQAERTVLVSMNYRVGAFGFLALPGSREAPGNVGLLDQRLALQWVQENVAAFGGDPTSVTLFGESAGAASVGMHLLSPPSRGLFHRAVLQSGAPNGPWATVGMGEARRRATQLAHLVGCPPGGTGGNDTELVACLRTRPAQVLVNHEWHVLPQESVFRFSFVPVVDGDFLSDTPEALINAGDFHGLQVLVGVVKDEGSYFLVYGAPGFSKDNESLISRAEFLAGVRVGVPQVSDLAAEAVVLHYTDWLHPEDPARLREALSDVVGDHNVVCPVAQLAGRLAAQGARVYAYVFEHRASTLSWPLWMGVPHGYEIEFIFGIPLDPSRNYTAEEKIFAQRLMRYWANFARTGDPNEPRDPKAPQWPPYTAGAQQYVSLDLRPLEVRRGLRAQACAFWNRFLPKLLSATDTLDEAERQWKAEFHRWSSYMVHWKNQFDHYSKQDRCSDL

biological target: Acetylcholinesterase (Homo sapiens) (UniProt P22303); assay: Acetylcholinesterase (AChE) small molecule antagonists: enzyme-based qHTS assay with human liver microsomes (AID 1347399); settings: at 53 µM (top of the series); note: nearly all actives have a fitted effect of over 60% in size
Excerpt: National Center for Advancing Translational Sciences [NCATS]
Division of Preclinical Innovation [DPI]
U.S. Environmental Protection Agency [EPA]
National Institutes of Environmental Health Sciences [NIEHS]
National Toxicology Program [NTP]
U.S. Food and Drug Administration [FDA]
Acetylcholinesterase (AChE) is the primary cholinesterase in the body that hydrolyzes a key neurotransmitter, acetylcholine. Inhibition of AChE activity can lead to neurotoxicity. The known inhibitors include organophosphorous pesticides (OP), chemical warfare agents, drugs, and various phytochemicals. Some compounds like OP compounds may need metabolic activation to be active AChE inhibitors. The cytochrome P450 (CYP) superfamily in the human microsomes is responsible for the metabolism of various endogenous and exogenous compounds.
An enzyme-based assay with the recombinant human AChE, human liver microsomes and Amplite Colormetric acetylcholinesterase assay kit (AAT Bioquest, Sunnyvale, CA) was used to evaluate compounds in the Tox21 10K library that need metabolic activation for AChE inhibition. The assay uses 5, 5-dithiobis-(2-nitrobenzoic acid) (DTNB) to quantify the thiocholine produced from the hydrolysis of acetylthiocholine by AChE.
Tox21 Assay Protocol Summary:
For the enzyme-based AChE assay with microsomes addition, a mixture of human AChE (50 mU/mL) and human liver microsomes (0.25 mg/mL, final concentration) in 3 uL/well was dispensed into black, clear-bottom 1536-well plates using a Multidrop Combi dispenser (Thermo Scientific, MA). Then, 23 nL of compound or DMSO (vehicle control) was transferred into the assay plates by a Pintool Station (Wako Automation, CA). Following compound addition, 1 uL of NADPH (0.25 mg/mL, final concentration) was transferred to the assay plate by a Flying Reagent Dispenser (Beckman Coulter, CA). The plates were incubated for 30 min at 37 C and 5% CO2, followed by the addition of 4 uL of colorimetric detection cocktail solution (DTNB, acetylthiocholine) into each well using a Flying Reagent Dispenser (Beckman Coulter, CA) and then 10 min incubation at room temperature.
% is set by controls: 0 for no effect and ±100 for the full control effect.

Row | SMILES | activity change, negative = inhibition
1 | OCCSCCO | inactive: 1.77%

same assay, conditions: at 115 µM (top of the series)

Row | SMILES | activity change, negative = inhibition
2 | OCCSCCO | inactive: 0.682%

same assay, conditions: at 115 µM (top of the series) unless noted

Row | SMILES | activity change, negative = inhibition
3 | ClCCNCCCl | inactive: -0.333%
4 | CCOC(=O)N1CCC(=O)CC1 | inactive: -1% [at 53 µM]
5 | Cc1cccc([N+](=O)[O-])c1[N+](=O)[O-] | inactive: -5.3% [at 53 µM]
6 | CCOP(=O)(CC)OCC | inactive: -1.68%
7 | Cc1ccc([N+](=O)[O-])cc1[N+](=O)[O-] | inactive: 0% and inactive: -1.79%
8 | Nc1cc([N+](=O)[O-])cc([N+](=O)[O-])c1O | inactive: 17.2%
9 | CC(C)OP(OC(C)C)OC(C)C | inactive: -0.103%
10 | COc1ccc([N+](=O)[O-])cc1[N+](=O)[O-] | inactive: 0%
11 | O=[N+]([O-])[O-].[NH4+] | inactive: 0% and inactive: 0.97%
12 | N#CBr | inactive: -1.13%
13 | CN(C)CCCl | inactive: 0.162%
14 | CCN(CC)CCCl | inactive: 3.78%
15 | CCC(=O)N(c1ccccc1)C1CCNCC1 | inactive: -0.371% [at 53 µM]
16 | COP(C)(=O)OC | inactive: -0.218% and inactive: -0.448%
17 | Cc1c([N+](=O)[O-])cccc1[N+](=O)[O-] | inactive: 0.695% and inactive: -1.07%
18 | N=C(N)N[N+](=O)[O-] | inactive: -0.297%
19 | Cc1ccc([N+](=O)[O-])c([N+](=O)[O-])c1 | inactive: -1.79% and inactive: -2.47%
20 | O=[N+]([O-])OCC(CO[N+](=O)[O-])(CO[N+](=O)[O-])CO[N+](=O)[O-] | inactive: -0.44%
21 | CP(=O)(O)OCCC[Si](O)(O)O | inactive: 0.163%
22 | ClCCOP(OCCCl)OCCCl | inactive: -2.04% and inactive: -1.32%
23 | C/C1=C2N=C(/C=C3N=C(/C(C)=C4\[N-][C@@](C)([C@@H]5N=C1[C@](C)(CCC(=O)NC[C@@H](C)OP(=O)([O-])O[C@H]1[C@@H](O)[C@@H](n6cnc7cc(C)c(C)cc76)O[C@@H]1CO)[C@H]5CC(N)=O)[C@@](C)(CC(N)=O)[C@@H]4CCC(N)=O)[C@@](C)(CC(N)=O)[C@@H]\3CCC(N)=O)C(C)(C)[C@@H]/2CCC(N)=O.[C-]#N.[Co+3] | inactive: -0.175% [at 53 µM]
24 | O=[N+]([O-])c1cccc([N+](=O)[O-])c1 | inactive: 31.7%
25 | [NH4+].[O-][Cl+3]([O-])([O-])[O-] | inactive: -0.163% and inactive: 1.4%
26 | CCOP(=O)(Cl)Cl | inactive: -0.163% and inactive: 0.486%
27 | CC(C)N(CCO)C(C)C | inactive: 0%
